Results as given in PMC9287160.
pKd: −log10 of the molar value.

Molecular target: biotinylated iC3b (UniProt P01024)
Experiment: SPR; biotinylated iC3b on a streptavidin chip (Biacore T200); αMβ2 HP 1.25-100 nM injected with or without a 1.5-fold molar excess of hCD11bNb1; 20 mM Hepes pH 7.5, 150 mM NaCl, 5 mM MgCl2, 1 mM CaCl2

pKd: 7.52
Substance: human integrin αMβ2 headpiece fragment (from UniProt P11215 17-1152; P05107 23-482) (complex)
